In PubChem BioAssay AID651710 (Broad Institute, 2012) one finds inhibition data, which are given here for 98 compounds.

Sequences of proteins named here, by UniProt entry; tags and fusion partners are left off.
UniProt P43351, whole entry: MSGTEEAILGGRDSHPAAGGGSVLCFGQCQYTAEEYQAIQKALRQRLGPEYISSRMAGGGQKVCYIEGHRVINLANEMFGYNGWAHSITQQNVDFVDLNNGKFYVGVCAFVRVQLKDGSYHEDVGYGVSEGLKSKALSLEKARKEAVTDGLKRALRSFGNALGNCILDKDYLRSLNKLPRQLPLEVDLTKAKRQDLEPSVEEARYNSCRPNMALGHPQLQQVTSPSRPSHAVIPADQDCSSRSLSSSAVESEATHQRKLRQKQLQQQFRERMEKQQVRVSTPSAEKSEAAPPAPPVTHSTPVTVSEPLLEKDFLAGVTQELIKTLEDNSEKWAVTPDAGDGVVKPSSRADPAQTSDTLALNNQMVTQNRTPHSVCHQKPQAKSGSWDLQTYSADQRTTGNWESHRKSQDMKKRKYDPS

Only a part is listed here, and it is no random draw. Calls of active or inactive are those of the source.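 How the source made its calls: active means every replicate showing at least 50% inhibition; inconclusive means mean inhibition at least 50% but not in every replicate; inactive means the rest.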

This assay has as its target DNA repair protein RAD52 homolog (Homo sapiens) (UniProt P43351). In words: RAD52 DNA annealing inhibitors, primary screen, biochemical, FRET, single point, set 2 (AID 651710). As to conditions: recombinant RAD52 DNA annealing, FRET fluorescence; at 18.7 µM; hits give high values.
In general, inhibition refers to the relative decrease from the control value, in per cent. Take `CN1CCC(Nc2ccc(F)c(Cl)c2)CC1`: the inhibition was inactive: -5.17%.
In the case of `O=c1[nH]c2ccccc2n1C1CCN(C(c2cc3ccccc3o2)c2nnnn2C2CCCC2)CC1` (stereo not drawn), the inhibition was inactive: -2.2%.
As to `CCCOc1ccc(C(=O)NCC2(N(C)C)CCCCC2)cc1`, the inhibition is inactive: -11.2%.
As for `NN(c1ccccc1)C1CCN(CCc2ccccc2)CC1`, the inhibition was inactive: -16.6%.
The figure for `O=C(O)C1(Nc2ccccc2)CCN(Cc2ccccc2)CC1` is inactive: -9.14%.
The figure for `CC(C)(C)OC(=O)N1CCC(Nc2ccccc2)CC1` is inactive: -0.039%.
Consider `COc1cccc(C(=O)N(c2cc(C)cc(C)c2)C2CCN(C(=O)OC(C)(C)C)CC2)c1`, for which the inhibition is inactive: -4.54%.
As for `COc1cc(OC)cc(C(=O)NCC2(N3CCOCC3)CCCCC2)c1`, the inhibition was inactive: -27.9%.
The figure for `COc1cccc(C(c2nnnn2C2CCCC2)N2CCC(n3c(=O)[nH]c4ccccc43)CC2)c1OC` (stereo not drawn) is inactive: -16%.
The result for `CN1CCC(Nc2ccc(Cl)cc2)CC1` reads inactive: 12.8%; that for `COc1cc(OC)cc(C(=O)NCC2(N3CCCCC3)CCCCC2)c1`, inactive: -11.9%.
The result for `O=c1[nH]c2ccccc2n1C1CCN(C(c2ccnc3ccccc23)c2nnnn2C2CCCCC2)CC1` (stereo not drawn) reads inactive: -22.4%; that for `CCC(c1nnnn1C1CCCCC1)N1CCC(n2c(=O)[nH]c3ccccc32)CC1` (stereo not drawn), inactive: -11.1%; that for `COc1cccc(C(c2nnnn2C2CCCCC2)N2CCC(n3c(=O)[nH]c4ccccc43)CC2)c1OC` (stereo not drawn), inactive: -16.7%.
On to `CC(=O)N(c1ccccc1)C1CCNCC1`, for which the inhibition was inactive: -4.07%.
On to `Cc1ccc(NC2(C#N)CCN(Cc3ccccc3)CC2)cc1`, for which the inhibition is inactive: 2.54%.
Regarding `Fc1ccccc1NC1CCN(Cc2ccccc2)CC1`, the inhibition was inactive: 5.85%.
The result for `Cc1ccc(C(=O)NCC2(N3CCCCC3)CCCCC2)o1` reads inactive: -12.9%.
As for `COc1ccc(C(c2nnnn2C2CCCCC2)N2CCC(n3c(=O)[nH]c4ccccc43)CC2)cc1` (stereo not drawn), the inhibition was inactive: 5.31%.
Turning to `CC(C)(C)n1nnnc1C(c1ccnc2ccccc12)N1CCC(n2c(=O)[nH]c3ccccc32)CC1` (stereo not drawn), the inhibition was inactive: -18.5%.
The figure for `Cc1ccccc1NC1(C#N)CCN(Cc2ccccc2)CC1` is inactive: -5.39%.
The figure for `CN(C)c1ccc(C(=O)NCC2(N3CCCCC3)CCCCC2)cc1` is inactive: -7.08%.
With `Cn1c(=O)[nH]cc(N(CCCl)CCCl)c1=O`, the inhibition is inactive: -8.55%.
Consider `O=C(NCC1(N2CCCCC2)CCCCC1)c1ccco1`, for which the inhibition is inactive: -86.7%.
The result for `CC(C)(C)OC(=O)N1CCC(N(C(=O)c2ccccc2)c2ccc(Cl)cc2)CC1` reads inactive: 3.65%; that for `N#Cc1ccc(C(=O)NCC2(N3CCCCC3)CCCCC2)cc1`, inactive: -16.7%; that for `Cc1cc(N(CCCl)CCCl)ccc1C=O`, inactive: -11.3%.
The result for `CCCN1CCC(Nc2cc(OC)cc(OC)c2)CC1` reads inactive: -36.6%.
As to `O=c1[nH]c2ccccc2n1C1CCN(C(c2ccccc2)c2nnnn2C2CCCC2)CC1` (stereo not drawn), the inhibition was inactive: -16.6%.
The figure for `C/C(N)=N\P(=O)(Oc1ccccc1)Oc1ccccc1` is inactive: -8.66%; for `CN(C)C1(CNC(=O)c2cccc(C#N)c2)CCCCC1` it is inactive: -10.2%.
On to `CC(C)(C)n1nnnc1C(c1cccc2ccccc12)N1CCC(n2c(=O)[nH]c3ccccc32)CC1` (stereo not drawn), for which the inhibition was inactive: -6.39%.
The figure for `O=C(NCC1(N2CCOCC2)CCCCC1)c1cc(Br)ccc1Cl` is inactive: -22.5%.
The result for `COc1cc(C(=O)NCC2(N3CCOCC3)CCCCC2)cc(OC)c1C` reads inactive: -0.019%; that for `CCCCn1nnnc1C(c1ccccc1)N1CCC(n2c(=O)[nH]c3ccccc32)CC1` (stereo not drawn), inactive: -3.76%; that for `O=c1[nH]c2ccccc2n1C1CCN(C(c2ccnc3ccccc23)c2nnnn2C2CCCC2)CC1` (stereo not drawn), inactive: -24.7%.
Take `COc1ccc(C(=O)NCC2(N3CCOCC3)CCCCC2)cc1OC`: the inhibition was inactive: -18.5%.
The result for `O=c1[nH]c2ccccc2n1C1CCN(C(c2cccs2)c2nnnn2C2CCCCC2)CC1` (stereo not drawn) reads inactive: -2.29%.
The figure for `CCOC(=O)N1CCC(Nc2ccc(C)cc2)CC1` is inactive: -3.18%; for `COc1cccc(C(c2nnnn2C(C)(C)C)N2CCC(n3c(=O)[nH]c4ccccc43)CC2)c1OC` (stereo not drawn) it is inactive: -16.6%; for `CCCCn1nnnc1C(c1cccc(OC)c1OC)N1CCC(n2c(=O)[nH]c3ccccc32)CC1` (stereo not drawn) it is inactive: 4.31%.
The result for `O=c1[nH]c2ccccc2n1C1CCN(C(c2cccs2)c2nnnn2C2CCCC2)CC1` (stereo not drawn) reads inactive: -10.4%; that for `CN(C)c1cccc(C(=O)NCC2(N3CCCCC3)CCCCC2)c1`, inactive: -4.11%.
Regarding `COc1ccc(CN(CCCl)CCCl)cc1Cl`, the inhibition is inactive: 0.137%.
The result for `CC(C)c1ccc(NC2CCN(C(=O)OC(C)(C)C)CC2)cc1` reads inactive: -4.58%.
The figure for `CCCCn1nnnc1C(c1ccnc2ccccc12)N1CCC(n2c(=O)[nH]c3ccccc32)CC1` (stereo not drawn) is inactive: -9.02%.
As to `O=C(NCC1(N2CCOCC2)CCCCC1)c1cc(F)c(F)cc1Cl`, the inhibition was inactive: -24%.
Regarding `CCC(c1nnnn1C(C)(C)C)N1CCC(n2c(=O)[nH]c3ccccc32)CC1` (stereo not drawn), the inhibition was inactive: -3.17%.
Take `COc1cc(OC)c(C(=O)NCC2(N(C)C)CCCCC2)cc1OC`: the inhibition is inactive: 2.24%.
`CN1CCC(Nc2cccc(F)c2)CC1`: the inhibition was inactive: -11.1%.
The result for `O=C(NCC1(N2CCCCC2)CCCCC1)c1cncc(Br)c1` reads inactive: -9.41%; that for `CCCOc1ccc(C(=O)NCC2(N(C)C)CCCCC2)cc1OC`, inactive: -6.65%; that for `Cc1ccc(C(=O)NCC2(N(C)C)CCCCC2)o1`, inactive: 15.2%.
The result for `COc1ccc(C(c2nnnn2C2CCCC2)N2CCC(n3c(=O)[nH]c4ccccc43)CC2)cc1` (stereo not drawn) reads inactive: 10.2%.
The result for `O=C(NCC1(N2CCCCC2)CCCCC1)c1ccc(OC(F)F)cc1` reads inactive: -55.2%; that for `CC(C)(C)n1nnnc1C(c1ccccc1OC(F)(F)F)N1CCC(n2c(=O)[nH]c3ccccc32)CC1` (stereo not drawn), inactive: -17.3%.
Turning to `O=C(NCC1(N2CCCCC2)CCCCC1)c1cccc([N+](=O)[O-])c1`, the inhibition is inactive: -4.3%.
The figure for `CSc1ccc(C(=O)NCC2(N3CCOCC3)CCCCC2)cc1` is inactive: -24.1%; for `O=c1[nH]c2ccccc2n1C1CCN(C(c2ccccc2OC(F)(F)F)c2nnnn2C2CCCC2)CC1` (stereo not drawn) it is inactive: -10.1%; for `CCN1CCC(Nc2ccc(Cl)cc2)CC1` it is inactive: -8.97%.
As for `O=C(NCC1(N2CCCCC2)CCCCC1)c1cccc(C(F)(F)F)c1`, the inhibition was inactive: -6.16%.
Regarding `CC(C)c1ccc(C(=O)NCC2(N3CCOCC3)CCCCC2)cc1`, the inhibition is inactive: -13.6%.
With `COc1ccc(NC2CCN(C(=O)OC(C)(C)C)CC2)cc1`, the inhibition is inactive: 5.57%.
The result for `CN1CCN(CCOC(=O)C(O)(c2ccccc2)c2ccccc2)CC1` reads inactive: -26.6%; that for `CCCCn1nnnc1C(c1cccc2ccccc12)N1CCC(n2c(=O)[nH]c3ccccc32)CC1` (stereo not drawn), inactive: -13.2%.
Take `COc1cc(C(=O)NCC2(N3CCCCC3)CCCCC2)ccc1OC(F)F`: the inhibition was inactive: -26.2%.
The figure for `CCOc1ccc(C)cc1CN(CCCl)CCCl` is inactive: 23.4%; for `O=C1CCN(Cc2ccccc2)CC1` it is inactive: -31%; for `CC(C)(C)n1nnnc1C(c1ccccc1)N1CCC(n2c(=O)[nH]c3ccccc32)CC1` (stereo not drawn) it is inactive: 4.64%.
On to `CCOC(=O)N1CCC(Nc2ccc(F)cc2)CC1`, for which the inhibition is inactive: 3.1%.
On to `CCCCOc1ccc(C(=O)NCC2(N3CCOCC3)CCCCC2)cc1`, for which the inhibition was inactive: -13.9%.
`CCCCn1nnnc1C(c1cc2ccccc2o1)N1CCC(n2c(=O)[nH]c3ccccc32)CC1` (stereo not drawn): the inhibition is inactive: -139%.
The result for `O=P1(N(CCCl)CCCl)SCCCS1` reads inactive: -9.56%; that for `O=C(NCC1(N2CCCCC2)CCCCC1)c1ccc(F)cc1`, inactive: -7.34%; that for `O=c1[nH]c2ccccc2n1C1CCN(C(c2ccccc2)c2nnnn2C2CCCCC2)CC1` (stereo not drawn), inactive: -5.87%.
The result for `O=c1[nH]c2ccccc2n1C1CCN(C(c2cccc3ccccc23)c2nnnn2C2CCCC2)CC1` (stereo not drawn) reads inactive: -9.12%.
The result for `CCOC(=O)N1CCC(Nc2cccc(C)c2)CC1` reads inactive: -20.1%.
With `COc1cc(C(=O)NCC2(N(C)C)CCCCC2)ccc1OC(F)F`, the inhibition is inactive: -0.993%.
The figure for `O=C(NCC1(N2CCCCC2)CCCCC1)c1cccs1` is inactive: -2.9%; for `CCCCn1nnnc1C(CC)N1CCC(n2c(=O)[nH]c3ccccc32)CC1` (stereo not drawn) it is inactive: -3.23%; for `CCCCn1nnnc1C(c1cccs1)N1CCC(n2c(=O)[nH]c3ccccc32)CC1` (stereo not drawn) it is inactive: -1.54%.
Take `O=C(NCC1(N2CCCCC2)CCCCC1)c1ccc(=O)[nH]c1`: the inhibition is inactive: -15.7%.
`CC(C)(C)OC(=O)N1CCC(N(C(=O)c2ccccc2)c2ccc(F)cc2)CC1`: the inhibition is inactive: -4.74%.
For the compound `COc1ccc(C(=O)NCC2(N3CCCCC3)CCCCC2)c(OC)c1OC`, the inhibition is inactive: -55.8%.
The figure for `CCC(c1nnnn1C1CCCC1)N1CCC(n2c(=O)[nH]c3ccccc32)CC1` (stereo not drawn) is inactive: -25%; for `COc1ccc(C(=O)NCC2(N3CCCCC3)CCCCC2)cc1` it is inactive: -13.7%; for `Cc1cccc(NC2(C#N)CCN(Cc3ccccc3)CC2)c1` it is inactive: -11.9%.
The figure for `CSc1ccccc1C(=O)NCC1(N2CCCCC2)CCCCC1` is inactive: -9.92%; for `Cc1cc(C)cc(N(C(=O)c2ccccc2)C2CCN(C(=O)OC(C)(C)C)CC2)c1` it is inactive: 7.28%; for `O=C(NCC1(N2CCCCC2)CCCCC1)c1ccc(Cl)nc1` it is inactive: -80.3%.
As for `O=c1[nH]c2ccccc2n1C1CCN(C(c2ccccc2OC(F)(F)F)c2nnnn2C2CCCCC2)CC1` (stereo not drawn), the inhibition was inactive: -12.7%.
With `CCCCn1nnnc1C(c1ccc(OC)cc1)N1CCC(n2c(=O)[nH]c3ccccc32)CC1` (stereo not drawn), the inhibition was inactive: 6.33%.
The figure for `CCOC(=O)N1CCC(Nc2ccc(OC)cc2)CC1` is inactive: -11.2%; for `COc1ccc(Cl)cc1C(=O)NCC1(N2CCOCC2)CCCCC1` it is inactive: 4.11%.
Regarding `O=C(NCC1(N2CCCCC2)CCCCC1)c1ccc(Cl)s1`, the inhibition is inactive: -16.5%.
In the case of `N#CC1(Nc2ccccc2)CCN(Cc2ccccc2)CC1`, the inhibition is inactive: -5.88%.
The result for `O=c1[nH]c2ccccc2n1C1CCN(C(c2cc3ccccc3o2)c2nnnn2C2CCCCC2)CC1` (stereo not drawn) reads inactive: -20.4%.
The result for `O=C(OC1CN2CCC1CC2)C1c2ccccc2Oc2ccccc21` (stereo not drawn) reads inactive: 0.532%.
